Literature values as cited in US7763418B2, “Detection of Rho proteins” (Cytoskeleton, Inc., priority 2005, dated 2010).

Target: Ras
Conditions: read-out: published affinity Ras:Raf1; cited from earlier work

Substance: Raf1: partner of Ras in the published Ras:Raf1 affinity
- Kd: ~20 nM
